Each structure is given as a SMILES string.

Chains of the proteins cited; added tags and fusions are not shown.
UniProt P11712, whole entry: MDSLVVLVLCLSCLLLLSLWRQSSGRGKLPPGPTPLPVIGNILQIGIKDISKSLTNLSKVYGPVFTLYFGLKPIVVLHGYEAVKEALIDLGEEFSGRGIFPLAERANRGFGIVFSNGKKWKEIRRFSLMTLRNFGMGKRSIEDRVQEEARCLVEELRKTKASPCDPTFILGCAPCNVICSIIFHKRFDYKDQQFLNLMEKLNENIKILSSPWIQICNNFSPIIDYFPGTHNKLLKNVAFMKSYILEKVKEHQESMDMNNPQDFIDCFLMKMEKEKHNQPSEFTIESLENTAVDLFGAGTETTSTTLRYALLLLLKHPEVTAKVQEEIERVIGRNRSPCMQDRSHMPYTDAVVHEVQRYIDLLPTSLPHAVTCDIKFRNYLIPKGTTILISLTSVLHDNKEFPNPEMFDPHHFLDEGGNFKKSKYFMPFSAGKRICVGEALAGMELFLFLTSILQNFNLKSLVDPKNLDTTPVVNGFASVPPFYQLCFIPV
UniProt P10635, whole entry: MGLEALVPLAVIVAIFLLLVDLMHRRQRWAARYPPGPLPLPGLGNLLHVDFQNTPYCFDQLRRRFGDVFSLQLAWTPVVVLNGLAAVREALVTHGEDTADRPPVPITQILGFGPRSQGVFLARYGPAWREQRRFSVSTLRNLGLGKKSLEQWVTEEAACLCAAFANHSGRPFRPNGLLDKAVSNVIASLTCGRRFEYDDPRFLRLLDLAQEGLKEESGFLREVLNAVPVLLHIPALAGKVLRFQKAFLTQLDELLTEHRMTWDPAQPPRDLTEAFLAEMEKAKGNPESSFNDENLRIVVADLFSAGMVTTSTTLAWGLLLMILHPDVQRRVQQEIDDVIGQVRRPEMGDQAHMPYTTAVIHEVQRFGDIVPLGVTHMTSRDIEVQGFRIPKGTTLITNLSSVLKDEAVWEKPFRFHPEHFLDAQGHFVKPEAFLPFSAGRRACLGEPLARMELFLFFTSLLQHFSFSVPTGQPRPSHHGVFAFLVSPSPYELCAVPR

In assay [1] the target is CYP2C9 (Homo sapiens (Human), UniProt P11712). The assay is described as follows: Inhibition of CYP isozymes in human liver microsomes, CYP2C9. On the technique in general: Liver microsomes are vesicles of endoplasmic reticulum, rich in cytochrome P450 enzymes.
The target of assay [2] is CYP2D6 (Homo sapiens (Human), UniProt P10635). In words: Inhibition of CYP isozymes in human liver microsomes, CYP2D6.

With `Cc1nn(C)cc1-c1nc2c(N3CCN(Cc4ccc(Cl)cc4)CC3)c(Cl)cnc2[nH]1` [Example 1, 6-Chloro-7-(4-(4-chlorobenzyl)piperazin-1-yl)-2-(1,3-dimethyl-1H-pyrazol-4-yl)-3H-imidazo[4,5-b]pyridine], the IC50 (as a rule, the point on the concentration scale where inhibition reaches its midpoint) in assay [1] was in the range of 10 to 50 µM.

In the case of `Cc1nc(CN2CCN(c3c(Cl)cnc4[nH]c(-c5cn(C)nc5C)nc34)CC2)no1` [Example 3, 3-((4-(6-Chloro-2-(1,3-dimethyl-1H-pyrazol-4-yl)-3H-imidazo[4,5-b]pyridin-7-yl)piperazin-1-yl)methyl)-5-methyl-1,2,4-oxadiazole], the IC50 in assay [2] was in the range of 10 to 50 µM.
